The text below walks through data of PMC11850616, “Nanomolar inhibitor of the galectin-8 N-terminal domain binds via a non-canonical cation-π interaction” (Communications Chemistry, 2025).

Chains of the proteins cited; added tags and fusions are not shown. Residues count along the entry.
UniProt P17931, whole entry: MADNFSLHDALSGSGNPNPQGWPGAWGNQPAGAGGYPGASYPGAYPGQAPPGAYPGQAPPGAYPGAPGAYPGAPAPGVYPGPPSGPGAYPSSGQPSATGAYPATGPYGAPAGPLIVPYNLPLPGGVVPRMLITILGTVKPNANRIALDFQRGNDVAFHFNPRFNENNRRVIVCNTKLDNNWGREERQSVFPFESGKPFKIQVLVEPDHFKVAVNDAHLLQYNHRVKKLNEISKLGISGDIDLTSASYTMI
UniProt O00214, 4-158 limits assumed: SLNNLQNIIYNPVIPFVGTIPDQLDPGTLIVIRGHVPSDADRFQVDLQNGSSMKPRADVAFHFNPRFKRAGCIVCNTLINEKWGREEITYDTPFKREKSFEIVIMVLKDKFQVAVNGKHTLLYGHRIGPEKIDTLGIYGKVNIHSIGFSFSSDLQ
UniProt O00214, 19-152 limits assumed: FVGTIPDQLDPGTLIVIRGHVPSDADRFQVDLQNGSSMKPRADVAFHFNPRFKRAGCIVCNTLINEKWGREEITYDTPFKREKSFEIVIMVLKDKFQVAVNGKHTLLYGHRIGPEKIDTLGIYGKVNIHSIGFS
UniProt O00214, 187-317 limits assumed: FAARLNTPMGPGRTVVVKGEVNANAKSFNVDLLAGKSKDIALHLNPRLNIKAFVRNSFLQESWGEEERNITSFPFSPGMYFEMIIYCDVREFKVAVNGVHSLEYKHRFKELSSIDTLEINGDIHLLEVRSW
UniProt P09382, whole entry: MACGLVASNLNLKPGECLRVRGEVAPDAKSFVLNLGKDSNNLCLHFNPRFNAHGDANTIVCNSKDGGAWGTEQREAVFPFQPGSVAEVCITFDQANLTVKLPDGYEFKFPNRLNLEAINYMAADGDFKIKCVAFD

One assay concerns the target Gal-3 (Homo sapiens, UniProt P17931). The assay is described as follows: competitive fluorescence polarisation assay, Gal-3. Background: In fluorescence polarisation assays a small probe gives low polarisation when free and higher when bound to something large.
In assay [1] the target is Gal-8N (galectin-8 N-terminal domain) (Homo sapiens, UniProt O00214). As to the kind of experiment: competitive fluorescence polarisation assay, Gal-8N. The conditions noted are these: read-out: Kd Gal-8N; competitive FP, mean ± SEM of n = 4 to 8, 20 °C.
In another assay the target is Gal-8N (Homo sapiens, UniProt O00214). The assay is described as follows: ligand efficiency (LE) and ligand-lipophilicity efficiency (LLE) calculations.
The target in a further assay is Gal-1 (Homo sapiens, UniProt P09382). The assay is described as follows: competitive fluorescence polarisation assay, Gal-1.
The next assay has as its target Gal-8C (Homo sapiens, UniProt O00214). The assay is described as follows: competitive fluorescence polarisation assay, Gal-8C.

SMILES strings stand for the structures. “And” between values parts separate entries of the source, which are not always exact repeats. Identical values can stand only once.

As for `Cn1c(CO[C@H]2[C@@H](O)[C@@H](CO)O[C@H](Sc3ccc(Cl)c(Cl)c3)[C@@H]2OCC2CC2)nc2ccc(C(=O)O)cc21`, on Gal-3 (ratio of FP Kd values), the Gal-3 selectivity ratio Kd (Gal-3)/Kd (Gal-8N) stood at 5.7. Further, the Kd on Gal-3 (read-out: Kd Gal-3, competitive FP, mean ± SEM of n = 4 to 8, 20 °C) is 5.7 µM; in assay [1], 1.02 µM and 1 µM; on Gal-1 (read-out: Kd Gal-1, competitive FP, mean ± SEM of n = 4 to 8, 20 °C), 12 µM; at Gal-8C (read-out: Kd Gal-8C, competitive FP, mean ± SEM of n = 4 to 8) it was 374 µM. Further, the LLE on Gal-8N (from Gal-8N Kd and clogP) is reported as 1.35. The LE on Gal-8N (from Gal-8N Kd and number of non-hydrogen atoms) is 0.216 (kcal/mol)/heavy atom. Also, at Gal-1 (ratio of FP Kd values), the Gal-1 selectivity ratio Kd (Gal-1)/Kd (Gal-8N) is 12. Besides, the Gal-8C selectivity ratio Kd (Gal-8C)/Kd (Gal-8N) at Gal-8C (ratio of FP Kd values) worked out at 374.

As a reminder, the Kd is the equilibrium constant for the complex coming apart.
